The results in this text go back to publication PMC3517478 (BMC Neurology, 2012).

The assay concerns the target T1, human α1R271Q-GlyR expressed in HEK 293 cells (Homo sapiens, UniProt P23415, R299Q).
T1 sequence (P23415 29-457 R299Q): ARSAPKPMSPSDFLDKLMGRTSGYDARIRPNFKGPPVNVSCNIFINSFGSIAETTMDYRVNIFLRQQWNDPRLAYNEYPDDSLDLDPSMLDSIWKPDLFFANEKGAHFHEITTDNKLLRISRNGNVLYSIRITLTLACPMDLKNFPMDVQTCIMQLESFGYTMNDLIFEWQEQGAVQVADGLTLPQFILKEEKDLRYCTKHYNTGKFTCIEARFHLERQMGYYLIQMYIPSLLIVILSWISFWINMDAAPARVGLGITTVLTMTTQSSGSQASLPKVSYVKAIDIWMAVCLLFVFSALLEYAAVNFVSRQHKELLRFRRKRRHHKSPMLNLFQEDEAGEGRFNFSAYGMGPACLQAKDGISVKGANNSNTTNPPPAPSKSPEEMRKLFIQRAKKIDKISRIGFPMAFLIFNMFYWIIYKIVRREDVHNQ
Conditions: R271Q; saturating glycine 300 mM. An excerpt: Human α1-, α1R271Q-, α1R271L-, α1R271K and α1S267I-GlyR subunits were transiently transfected into human embryonic kidney cells (HEK 293, ATCC, Manassas, USA). The wild type α1-GlyR -cDNA was cloned in pCIS2 (Invitrogen, San Diego, USA) vector and provided by Prof. Heinrich Betz (Max-Planck-Institut für Hirnforschung, Frankfurt am Main, Germany). For the plasmid cDNA of the mutated α1R271Q-, α1R271L-, α1R271K- and α1S267I-GlyR the eukaryotic expression vector pcDNA1amp (Invitrogen, San Diego, USA), under the control of cytomegalovirus promoter, was used. For site-directed mutagenesis, single stranded template cDNA was synthesized from M13 origin of replication and the mutations of arginine residue (R) at position 271 to glutamine (R271Q), leucine (R271L) or lysine (R271K) and mutation of serine residue (S) at position 267 to isoleucine (S267I) were generated using standard procedures. […]
Whole-cell experiments were performed at a holding potential of −30 mV with a mean seal resistance of 1 GΩ. […] We calculated flow rate of background solution through the chamber with 3,4 ml/min corresponding to 4% of maximal pump rate. With regard to the chamber volume of 100 μl the exchange solution time within the chamber was assessed to approximately […], dependent on cell size accordingly. […]

`NCC(=O)O` [glycine]: the “Mean current amplitude ± SEM” value is 123±19 pA.
